Data reported in US20130149757A1 (OPTINOL, INC., priority 2011, published 2013).

Tests used:
[1] = tested on: bacterial cells; conditions: traditional ABE fermentation; cited from earlier work
[2] = Liquid-liquid extraction with corn oil (Karr extractor); format: physicochemical
Experimental: Two runs were conducted, each with a different flow rate.

[3] = 16 g/L butanol starting concentration, 20% v/v corn oil

n-butanol
level of butanol not exceeded before the fermentation broth becomes toxic to the organism [1]: ~16000 µg/mL | % extraction, Run 1 ([2]; flow rate feed 26 ml/min): 35.6% | % extraction, Run 2 ([2]; flow rate feed 39 ml/min): 31.5% | extraction in this set up ([2]; summary comment): around 30% | butanol removed from solution [3]: 34%
